Chains of the proteins cited; added tags and fusions are not shown. Residues count along the entry.
UniProt P00797, 67-406, species assumed: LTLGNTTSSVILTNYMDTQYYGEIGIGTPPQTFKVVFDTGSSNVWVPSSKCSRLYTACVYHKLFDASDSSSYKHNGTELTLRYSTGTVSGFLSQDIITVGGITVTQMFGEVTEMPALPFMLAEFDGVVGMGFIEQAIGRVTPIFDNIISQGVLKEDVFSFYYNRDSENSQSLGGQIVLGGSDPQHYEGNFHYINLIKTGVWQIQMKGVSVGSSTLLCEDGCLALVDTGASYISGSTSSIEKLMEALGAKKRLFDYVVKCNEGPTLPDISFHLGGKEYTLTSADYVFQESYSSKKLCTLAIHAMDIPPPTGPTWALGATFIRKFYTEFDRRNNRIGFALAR

According to US4743585A (Warner-Lambert Company, priority 1986, dated 1988):

Biological target: renin (Homo sapiens, UniProt P00797)
Assay: in vitro renin inhibitory activity, standard radioimmunoassay for angiotensin I
Type: biochemical
Details: molar concentration causing 50% inhibition of renin activity; renin incubated two hours at 37° with substrate angiotensinogen; product angiotensin I by radioimmunoassay
Protocol: The effectiveness of the aforementioned compounds is determined by a test for in vitro renin inhibitory activity. This activity is determined by a standard radioimmunoassay for angiotensin I. In this assay the enzyme, renin, incubated for two hours at 37° in the presence of a substrate, angiotensinogen, generates the product, angiotensin I. Test compounds are added to the incubation mixture.

IC50: 3.8 µM
Structure (SMILES): CC(C)CC(NC(=O)CC(O)C(Cc1ccccc1)NC(=O)C(Cc1c[nH]cn1)NCC(Cc1ccccc1)NC(=O)OC(C)(C)C)C(=O)NCc1ccccc1 (stereo not shown) [Example 74, 2,5,8,13,16-pentaazaheptadecanoic acid, 10-hydroxy-6-(1H-imidazol-4-ylmethyl)-14-(2-methylpropyl)-7,12,15-trioxo-17-phenyl-3,9-bis(phenylmethyl)-, 1,1-dimethylethyl ester]
